Where “and” joins values, the source holds several entries; their conditions need not be identical. Identical values can stand only once.
Experiments:
Conditions in all cases: both partners purified
[1] = target: T1, extracellular domain (ECD) NPR-C (27–481)-6His (human, UniProt P17342-2 27-481); experiment: fluorescence polarisation; competition against 15 nM Flu-P19 probe; FL NPR-C 150 nM or ECD NPR-C 400 nM; competitor 4.89 nM-2.5 uM; HEPES buffer, 3% DMSO; Ki computed from IC50 with a web-based converter
T1 construct: natriuretic peptide receptor C (NPR-C), human, extracellular domain, residues 27-481; Mainly monomer (~55 kDa) on non-reducing SDS-PAGE; the discussion says ~25% of the molecules are disulphide-bonded; The tag's end is read from the construct's name; also called (27–481)-6His (ECD); extracellular NPR-C; source: expressed and isolated at Peak Proteins, UK; not shown: 6His, C-terminal, kept
T1 sequence (looked up): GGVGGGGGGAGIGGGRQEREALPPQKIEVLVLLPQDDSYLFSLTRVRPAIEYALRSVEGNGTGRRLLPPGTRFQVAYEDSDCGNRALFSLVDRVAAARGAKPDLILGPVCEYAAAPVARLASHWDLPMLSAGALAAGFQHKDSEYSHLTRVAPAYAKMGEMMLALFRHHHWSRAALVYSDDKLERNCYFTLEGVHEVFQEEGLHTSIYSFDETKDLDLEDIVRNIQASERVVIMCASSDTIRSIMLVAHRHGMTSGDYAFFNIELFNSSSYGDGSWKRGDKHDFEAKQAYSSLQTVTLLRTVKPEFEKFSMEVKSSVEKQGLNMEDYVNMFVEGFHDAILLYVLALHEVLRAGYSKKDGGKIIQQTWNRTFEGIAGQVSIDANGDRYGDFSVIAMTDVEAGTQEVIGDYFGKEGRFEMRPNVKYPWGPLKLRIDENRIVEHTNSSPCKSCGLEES

[2] = target: T2, Human full-length (FL) NPR-C (27–541)-10His-Flag (human, UniProt P17342-2 27-540); experiment: SPR; BIAcore T200, CM5 chip; NPR-C amine-coupled (FL 10,000 RU, ECD 5,000 RU); CNP 0.5-8 nM, single-cycle sequential injections, 30 ul/min, 240 s each, dissociation 3,600 s; PBS-P with 1% DMSO; kinetic 1:1 (Langmuir) model
T2 construct: natriuretic peptide receptor C (NPR-C), human, residues 27-541; Primarily a disulphide-bonded dimer (~130 kDa) on non-reducing SDS-PAGE; The tag's end is read from the construct's name (27–541)-10His-Flag; also called natriuretic peptide receptor C; natriuretic peptide receptor type-C; source: expressed and isolated at Peak Proteins, UK; not shown: 10His, C-terminal, kept; Flag, C-terminal, kept
T2 sequence (looked up): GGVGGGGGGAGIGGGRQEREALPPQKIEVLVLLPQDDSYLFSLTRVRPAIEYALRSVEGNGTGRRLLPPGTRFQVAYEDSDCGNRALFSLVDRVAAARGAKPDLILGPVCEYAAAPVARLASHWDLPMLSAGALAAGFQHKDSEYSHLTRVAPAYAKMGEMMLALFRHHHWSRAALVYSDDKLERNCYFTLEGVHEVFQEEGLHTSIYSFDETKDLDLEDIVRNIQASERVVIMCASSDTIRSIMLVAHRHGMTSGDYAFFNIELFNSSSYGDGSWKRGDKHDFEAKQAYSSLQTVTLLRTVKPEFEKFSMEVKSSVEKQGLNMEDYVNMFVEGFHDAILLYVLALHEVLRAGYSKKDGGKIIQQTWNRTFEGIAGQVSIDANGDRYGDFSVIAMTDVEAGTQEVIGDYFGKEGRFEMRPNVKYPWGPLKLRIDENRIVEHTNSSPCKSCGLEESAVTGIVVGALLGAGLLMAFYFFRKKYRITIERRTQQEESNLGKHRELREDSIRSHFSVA

[3] = target: T1, extracellular domain (ECD) NPR-C …; experiment: as above

IC50 [1]: 54.9 nM and 60.3 nM
Kd [2]: 0.0036 nM
Kd [3]: 0.0069 nM
B1: C-type natriuretic peptide (ligand)
chain: GLSKGCFGLKLDRIGSMSGLGC
modifications: intramolecular disulfide between the two Cys (CNP-22 Cys6-Cys22; precursor Cys110-Cys126). The paper does not print the form or species; CNP-22, the standard commercial CNP (Sigma-Aldrich), is taken …

Source: article PMC6879014, “Biophysical screening methods for extracellular domain peptide receptors, application to natriuretic peptide receptor C ligands” (Chemical Biology & Drug Design, 2018)
